Data on eight compounds can be found in PubChem BioAssay (NCI).

SMILES strings stand for the structures. The entries are a selection whose mix differs from that of the whole data set.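 Cell lines were cultured in 96-well plates, exposed to a single compound concentration, and assessed for percent growth 48 hours later.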 The source made the active and inactive calls. Rule for the calls: active = growth percent below 10; inactive = the rest.

What all share (experiment): NCI-60 one-dose screen, 48 h (100 = growth as untreated, 0 = no growth, -100 = all killed)
The subject of one test is DU-145 prostate. To be noted: 10 µM unless noted.
The subject of another test is K-562 leukemia. The settings on record: 10 µM unless noted.
Another test concerns MALME-3M melanoma. To be noted: 10 µM unless noted.
The subject of a further test is MDA-MB-231 breast. The settings on record: 10 µM unless noted.
The test system of a further test is RXF 393 renal. The settings on record: 10 µM unless noted.
For another test, the system named is SF-268 CNS. To be noted: 10 µM unless noted.
The test system of a further test is SF-295 CNS. To be noted: 10 µM unless noted.
A further test deals with SF-539 CNS. To be noted: 10 µM unless noted.
In a further test the test system is UACC-257 melanoma. To be noted: 10 µM unless noted.
A further test deals with M14 melanoma. The settings on record: 10 µM unless noted.
Another test relates to HCT-15 colon. To be noted: 10 µM unless noted.
The test system of another test is HT29 colon. To be noted: 10 µM unless noted.
In a further test the test system is SNB-75 CNS. The settings on record: 10 µM unless noted.
In a further test the test system is SNB-19 CNS. The settings on record: 10 µM unless noted.
A further test deals with U251 CNS. The settings on record: 10 µM unless noted.
Another test relates to PC-3 prostate. The settings on record: 10 µM unless noted.
For the next test, the system named is SK-MEL-5 melanoma. The settings on record: 10 µM unless noted.
For a further test, the system named is UACC-62 melanoma. To be noted: 10 µM unless noted.
A further test has as its system LOX IMVI melanoma. The settings on record: 10 µM.
For the next test, the system named is SK-MEL-28 melanoma. To be noted: 10 µM unless noted.

In the case of `COc1cc([N+](=O)[O-])c([N+](=O)[O-])cc1N`, the growth in the test with DU-145 prostate is inactive: 113%; in the test with K-562 leukemia it was inactive: 117%; in the test on MALME-3M melanoma, inactive: 101%; with MDA-MB-231 breast it was inactive: 102%; with RXF 393 renal, inactive: 110%; with SF-268 CNS it was inactive: 104%. Also, the growth is inactive: 99.8% in the test with SF-295 CNS; inactive: 94.7% with SF-539 CNS; inactive: 98% with UACC-257 melanoma; inactive: 102% in the test with M14 melanoma; inactive: 103% in the test on HCT-15 colon; inactive: 112% in the test with HT29 colon. Also, the growth with SNB-75 CNS was inactive: 92%; in the test with SNB-19 CNS, inactive: 101%; with U251 CNS it was inactive: 101%; with PC-3 prostate it was inactive: 87.7%; with SK-MEL-5 melanoma, inactive: 99.3%; with UACC-62 melanoma, inactive: 88.7%. Also, the growth in the test with LOX IMVI melanoma is inactive: 111%; in the test on SK-MEL-28 melanoma, inactive: 97.1%.
Consider `CN(CCCl)/N=N/c1nc2c([nH]1)c(=O)n(C)c(=O)n2C`, for which the growth was inactive: 110% with DU-145 prostate; inactive: 89.4% in the test with K-562 leukemia; inactive: 97% with MALME-3M melanoma; inactive: 108% in the test on MDA-MB-231 breast; inactive: 136% with RXF 393 renal; inactive: 103% in the test with SF-268 CNS. The growth with SF-295 CNS was inactive: 98.2%; in the test on SF-539 CNS, inactive: 87.3%; with UACC-257 melanoma it was inactive: 104%; with M14 melanoma it was inactive: 93.4%; in the test with HCT-15 colon, inactive: 103%; in the test on HT29 colon, inactive: 90.5%. Further, the growth in the test with SNB-75 CNS was inactive: 86.6%; with SNB-19 CNS, inactive: 103%; in the test with U251 CNS it was inactive: 104%; in the test on PC-3 prostate, inactive: 104%; with SK-MEL-5 melanoma, inactive: 103%; with UACC-62 melanoma it was inactive: 105%. For the same compound, the growth in the test on LOX IMVI melanoma is inactive: 99.9%; in the test with SK-MEL-28 melanoma it was inactive: 101%.
Consider `COc1cccc([As]=O)c1` (stereo not given), for which the growth with DU-145 prostate was active: -76.5%; in the test with K-562 leukemia, active: -27.8%; with MALME-3M melanoma it was active: -76.2%; in the test on MDA-MB-231 breast, active: -94.9%; with RXF 393 renal, active: -91.3%; in the test with SF-268 CNS, active: -84.1%. In addition, the growth is active: -89.3% with SF-295 CNS; active: -99.6% with SF-539 CNS; active: -94.6% with UACC-257 melanoma; active: -93.3% in the test with M14 melanoma; active: -87.9% with HCT-15 colon; active: -46.8% in the test on HT29 colon. The growth was active: -98.7% in the test with SNB-75 CNS; active: -99.2% with SNB-19 CNS; active: -93.8% with U251 CNS; active: -93.3% in the test with PC-3 prostate; active: -95.2% in the test on SK-MEL-5 melanoma; active: -97.3% with UACC-62 melanoma. The growth in the test on LOX IMVI melanoma is active: -40%; in the test with SK-MEL-28 melanoma it was active: -94.7%.
As to `CC(Cc1ccccc1)N(CCCl)Cc1ccccc1` (stereo not given), the growth with DU-145 prostate is inactive: 106%; in the test with K-562 leukemia, inactive: 91.9%; in the test on MALME-3M melanoma it was inactive: 95.4%; in the test on MDA-MB-231 breast, inactive: 106%; with RXF 393 renal, inactive: 113%; with SF-268 CNS, inactive: 103%. For the same compound, the growth is inactive: 94.4% in the test with SF-295 CNS; inactive: 97.5% in the test on SF-539 CNS; inactive: 91.1% in the test with UACC-257 melanoma; inactive: 95.5% in the test with M14 melanoma; inactive: 101% in the test on HCT-15 colon; inactive: 84.8% with HT29 colon. The growth in the test with SNB-75 CNS was inactive: 103%; in the test with SNB-19 CNS, inactive: 114%; in the test on U251 CNS it was inactive: 96.3%; in the test with PC-3 prostate, inactive: 86.8%; in the test with SK-MEL-5 melanoma, inactive: 89.8%; with UACC-62 melanoma, inactive: 102%. The growth in the test on LOX IMVI melanoma was inactive: 93.7%; in the test on SK-MEL-28 melanoma it was inactive: 112%.
As for `CCOP(=O)(Nc1ccccc1Cl)OCC`, the growth in the test on DU-145 prostate was inactive: 98.6%; in the test with K-562 leukemia, inactive: 107%; in the test on MALME-3M melanoma it was inactive: 97.2%; in the test on MDA-MB-231 breast, inactive: 117%; with RXF 393 renal, inactive: 110%; in the test on SF-268 CNS, inactive: 91.2%. For the same compound, the growth in the test on SF-295 CNS was inactive: 102%; in the test on SF-539 CNS it was inactive: 103%; with UACC-257 melanoma, inactive: 100%; in the test on M14 melanoma, inactive: 96.1%; with HCT-15 colon it was inactive: 103%; with HT29 colon, inactive: 109%. Besides, the growth in the test on SNB-75 CNS is inactive: 87.2%; in the test with SNB-19 CNS, inactive: 112%; in the test with U251 CNS, inactive: 105%; with PC-3 prostate it was inactive: 90%; in the test on SK-MEL-5 melanoma, inactive: 92.9%; in the test with UACC-62 melanoma, inactive: 101%. Moreover, the growth with LOX IMVI melanoma is inactive: 89.5%; with SK-MEL-28 melanoma, inactive: 108%.
Regarding `Cc1ccc(S(=O)(=O)n2cc([C@@]3(O)C[C@H](CC#N)OC3=O)c3ccccc32)cc1`, the growth with DU-145 prostate is active: -48.5%; in the test on K-562 leukemia, active: -2.96%; in the test with MALME-3M melanoma, inactive: 22.8%; with MDA-MB-231 breast, active: -10.3%; in the test with RXF 393 renal, inactive: 12.8%; with SF-268 CNS it was inactive: 26.9%. Further, the growth in the test with SF-295 CNS was active: -45.1%; in the test with SF-539 CNS, active: -27.7%; with UACC-257 melanoma, inactive: 75.9%; in the test on M14 melanoma, inactive: 20.3%; in the test on HCT-15 colon, active: -14.3%; in the test on HT29 colon it was active: -10.1%. The growth with SNB-75 CNS was active: -4.02%; with SNB-19 CNS, inactive: 33.8%; with U251 CNS it was active: -3.77%; in the test with PC-3 prostate, inactive: 14.2%; in the test with SK-MEL-5 melanoma, active: -43.5%; in the test with UACC-62 melanoma, inactive: 24.5%. Besides, the growth in the test with LOX IMVI melanoma was inactive: 16.7%; with SK-MEL-28 melanoma it was inactive: 49.2%.
Consider `O=P1(N(CCCl)CCCl)OCCCS1` (stereo not given), for which the growth with DU-145 prostate is inactive: 111%; with K-562 leukemia, inactive: 107%; with MALME-3M melanoma, inactive: 115%; in the test with MDA-MB-231 breast, inactive: 110%; in the test with RXF 393 renal, inactive: 125%; in the test with SF-268 CNS, inactive: 102%. For the same compound, the growth is inactive: 103% with SF-295 CNS; inactive: 90.6% with SF-539 CNS; inactive: 97.8% in the test on UACC-257 melanoma; inactive: 106% with M14 melanoma; inactive: 96% in the test with HCT-15 colon; inactive: 110% in the test on HT29 colon. Moreover, the growth in the test with SNB-75 CNS is inactive: 89.7%; in the test on SNB-19 CNS, inactive: 107%; in the test on U251 CNS, inactive: 103%; in the test on PC-3 prostate, inactive: 112%; in the test with SK-MEL-5 melanoma it was inactive: 107%; in the test with UACC-62 melanoma it was inactive: 103%. In addition, the growth with LOX IMVI melanoma is inactive: 93.4%; in the test with SK-MEL-28 melanoma, inactive: 110%.
In the case of `O=C(CCC(=O)Oc1c(Cl)cc([N+](=O)[O-])cc1[N+](=O)[O-])Oc1c(Cl)cc([N+](=O)[O-])cc1[N+](=O)[O-]`, the growth is inactive: 112% in the test with DU-145 prostate; inactive: 92.2% in the test with K-562 leukemia; inactive: 129% in the test with MALME-3M melanoma; inactive: 117% with MDA-MB-231 breast; inactive: 118% in the test with RXF 393 renal; inactive: 107% with SF-268 CNS. In addition, the growth was inactive: 126% with SF-295 CNS; inactive: 110% with SF-539 CNS; inactive: 109% in the test with UACC-257 melanoma; inactive: 118% with M14 melanoma; inactive: 109% in the test on HCT-15 colon; inactive: 101% with HT29 colon. The growth with SNB-75 CNS was inactive: 105%; with SNB-19 CNS, inactive: 111%; with U251 CNS, inactive: 104%; in the test on PC-3 prostate it was inactive: 103%; in the test on SK-MEL-5 melanoma it was inactive: 99.1%; in the test on UACC-62 melanoma it was inactive: 110%. In addition, the growth in the test on LOX IMVI melanoma was inactive: 101%; in the test with SK-MEL-28 melanoma, inactive: 115%.
